# Laboratory results as given in US20240287076A1, “COMPOUNDS FOR TARGETING DEGRADATION OF BRUTON'S TYROSINE KINASE” (BIOGEN MA INC., priority 2021, published 2024).
# By UniProt entry, the sequences of proteins in these tests, tags left out.
# UniProt Q06187, whole entry: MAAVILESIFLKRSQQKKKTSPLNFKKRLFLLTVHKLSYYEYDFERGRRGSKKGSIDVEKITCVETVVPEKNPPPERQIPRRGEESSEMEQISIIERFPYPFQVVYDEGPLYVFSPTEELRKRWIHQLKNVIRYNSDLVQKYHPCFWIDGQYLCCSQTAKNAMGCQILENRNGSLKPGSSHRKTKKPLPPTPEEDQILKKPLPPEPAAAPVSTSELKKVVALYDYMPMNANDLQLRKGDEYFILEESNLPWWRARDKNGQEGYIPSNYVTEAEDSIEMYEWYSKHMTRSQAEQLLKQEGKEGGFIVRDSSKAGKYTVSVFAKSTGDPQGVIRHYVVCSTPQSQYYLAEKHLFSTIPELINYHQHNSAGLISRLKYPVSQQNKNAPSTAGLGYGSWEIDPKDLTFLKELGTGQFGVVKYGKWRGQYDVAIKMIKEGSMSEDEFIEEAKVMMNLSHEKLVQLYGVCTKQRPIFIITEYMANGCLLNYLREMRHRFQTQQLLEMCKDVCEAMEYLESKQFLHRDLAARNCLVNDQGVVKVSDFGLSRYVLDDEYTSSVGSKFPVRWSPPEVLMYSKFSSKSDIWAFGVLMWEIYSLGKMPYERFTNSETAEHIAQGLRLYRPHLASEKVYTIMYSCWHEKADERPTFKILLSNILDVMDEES
# Target: BTK (Homo sapiens, UniProt Q06187)
# Assay: BTK degradation assay using the HiBiT Method (Nano-Glo HiBiT Lytic Assay, GM01501.3 cells)
# Format: cell-based
# Conditions: HiBiT Degradation on GM01501.3 BTK @ 6 hours
# Procedure: Selected compounds were tested in a BTK degradation assay using the HiBiT Method. Park Memorial Institute (RPM1) 1640 Medium with phenol red, L-Glutamine, Sodium Pyruvate, and fetal bovine serum (FBS) were purchased from Gibco (Grand Island, NY, USA). Nano-Glo® HiBiT Lytic Assay System was purchased from Promega (Madison, WI, USA). GM01501 cells were obtained from the NIGMS Human Genetic Cell Repository at the Coriell Institute for Medical Research. The GM01501.3 cell line endogenously expresses BTK with a HiBiT fusion tag via CRISPR knock-in at its C-terminal region. It was engineered by electroporation with the Neon Transfection System (Themo Fisher Scientific), according to manufacturer indications. Electroporation conditions: 1 pulse of 1,350 V for 30 ms for 0.5×10_6 cells. Cell culture flasks and 384-well microplates were acquired from VWR (Radnor, PA, USA). BTK degradation was evaluated by quantification of luminescent signal using Nano-Glo® HiBiT Lytic Assay kit. Test compounds were added to the 384-well plate from a top concentration of 10 μM with 11 points, half log titration in duplicates. GM01501.3 cells were added into 384-well plates at a cell density of 10,000 cells per well in a total volume of 30 μl. The plates were kept at 37° C. with 5% CO2 for 6 hours. Negative control wells included cells treated with DMSO only and positive control wells included only growing media, without Nano-Glo® HiBiT Lytic reagent. After a 6-hour incubation, Nano-Glo® HiBiT Lytic Assay reagent was added to the cells following manufacturer indications. Luminescence was acquired on EnVision™ Multilabel Reader (PerkinElmer, Santa Clara, CA, USA). […] “++++” represents a DC50 value of less than 100 nM. “+++” represents a DC50 value of 100 nM-500 nM. “++” represents a DC50 value of 500 nM-1000 nM. “+” represents a DC50 value of greater than 1000 nM.
row,DC50,SMILES
1,< 100 nM,Cc1cc(-c2ncnn3cc(CCN4CCC(c5ccc(CN6CCC(=O)NC6=O)cc5)CC4)cc23)ccc1CNC(=O)c1noc(C(C)(C)C)n1
2,< 100 nM,Cc1cc(-c2ncnn3cc(CCN4CCC(c5ccc6c(C7CCC(=O)NC7=O)nn(C)c6c5)CC4)cc23)ccc1CNC(=O)c1noc(C2(C(F)(F)F)CC2)n1 (stereo not drawn)
3,< 100 nM,Cc1cc(-c2ncnn3cc(CCN4CCC(c5ccc6c(C7CCC(=O)NC7=O)nn(C)c6c5)CC4)cc23)ccc1CNC(=O)c1cc(C(C)(C)C)no1 (stereo not drawn)
